Consider 1 substance from US11129840B2, “Methods for identifying novel dosing regimens” (Zavante Therapeutics, Inc., priority 2017, dated 2021).

This assay deals with K. pneumoniae (KPC-producer) isolate. Nature of the assay: Time-kill kinetic analysis. The class given is cell-based, Klebsiella pneumoniae. To be noted: ¼ and 1×MIC. The protocol: TKK were sampled for colony counts at T0, T2, T4, T8 and T24 hours (h). Two Klebsiella pneumoniae isolates (one KPC and one ESBL), two Pseudomonas aeruginosa isolates (non-MDR), and one Acinetobacter baumannii isolate (MDR) were tested.

Turning to Piperacillin-tazobactam [PTZ], the inhibitory activity result is “little inhibitory activity”.
